Assay results: patent US20180237490A1

T1: human GLP-1 receptor (human), P43220
T1 chain: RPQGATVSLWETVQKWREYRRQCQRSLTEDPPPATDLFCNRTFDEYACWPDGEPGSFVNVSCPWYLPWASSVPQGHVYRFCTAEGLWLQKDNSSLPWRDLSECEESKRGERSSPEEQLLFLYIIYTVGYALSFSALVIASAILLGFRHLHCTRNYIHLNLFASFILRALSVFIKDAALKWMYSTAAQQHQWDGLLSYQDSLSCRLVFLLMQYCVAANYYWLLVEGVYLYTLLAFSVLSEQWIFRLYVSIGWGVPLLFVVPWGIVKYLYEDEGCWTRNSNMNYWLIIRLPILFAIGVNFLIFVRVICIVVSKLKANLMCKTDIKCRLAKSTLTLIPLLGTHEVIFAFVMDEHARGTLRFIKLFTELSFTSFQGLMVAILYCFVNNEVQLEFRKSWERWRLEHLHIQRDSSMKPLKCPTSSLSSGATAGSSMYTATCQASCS


Experiments:
[1] = target: T1, human GLP-1 receptor (human), P43220; experiment: cell-based or functional assay
[2] = target: human glucagon receptor (human), P47871; experiment: cell-based or functional assay

Binder	EC50 (nM), cAMP, CHO/GLP-1R [1]	EC50 (nM), cAMP, CHO/GCGR [2]
HGQGTFTSDYSRYLEEEAVRLFIEWLKNGGPSSGAPPPS (modifications not checked) [oxyntomodulin analog (SEQ ID NO: 4)]	5.5 nM	–
HSQGTFTSDYSRYLDEEAVRLFIEWIRNTKRNRNNIA (modifications not checked) [oxyntomodulin analog (SEQ ID NO: 17)]	97.9 nM	> 1000 nM
HSQGTFTSDYSKYLDEEAVRLFIEWLMNTKRNRNNIA (modifications not checked) [oxyntomodulin analog (SEQ ID NO: 2)]	51.8 nM	12.8 nM
